Experiments:
[1] = biological target: T1, kappa opioid receptor (Rattus norvegicus, UniProt P34975); assay type: binding; conditions: read-out: Kappa (Ki)
T1 construct: expressed in transfected cells; host or cells: HEK293

Chains of the proteins cited; added tags and fusions are not shown. Lines headed by an entry give the natural chain unless they say otherwise; changes in a name come on top.
UniProt P34975: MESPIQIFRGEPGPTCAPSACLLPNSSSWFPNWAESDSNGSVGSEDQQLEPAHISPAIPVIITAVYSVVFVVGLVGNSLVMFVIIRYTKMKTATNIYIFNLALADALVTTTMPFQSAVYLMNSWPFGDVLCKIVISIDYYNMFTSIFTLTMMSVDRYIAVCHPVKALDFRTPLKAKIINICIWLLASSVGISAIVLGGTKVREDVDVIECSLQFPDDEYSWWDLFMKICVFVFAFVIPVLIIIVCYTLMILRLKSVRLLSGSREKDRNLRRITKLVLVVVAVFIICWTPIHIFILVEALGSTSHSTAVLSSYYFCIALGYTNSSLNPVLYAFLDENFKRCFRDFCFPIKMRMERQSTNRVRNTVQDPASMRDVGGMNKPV
UniProt P32300, whole entry: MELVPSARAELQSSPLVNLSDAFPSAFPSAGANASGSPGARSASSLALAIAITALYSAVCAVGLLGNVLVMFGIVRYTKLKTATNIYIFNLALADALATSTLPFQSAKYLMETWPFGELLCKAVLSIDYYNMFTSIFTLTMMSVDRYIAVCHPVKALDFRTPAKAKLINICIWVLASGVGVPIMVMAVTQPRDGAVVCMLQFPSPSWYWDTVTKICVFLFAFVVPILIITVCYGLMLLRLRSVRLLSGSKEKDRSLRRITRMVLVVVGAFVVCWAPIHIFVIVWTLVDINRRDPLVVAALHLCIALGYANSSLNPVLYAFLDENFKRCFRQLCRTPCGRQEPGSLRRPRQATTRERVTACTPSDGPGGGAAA
UniProt P42866, whole entry: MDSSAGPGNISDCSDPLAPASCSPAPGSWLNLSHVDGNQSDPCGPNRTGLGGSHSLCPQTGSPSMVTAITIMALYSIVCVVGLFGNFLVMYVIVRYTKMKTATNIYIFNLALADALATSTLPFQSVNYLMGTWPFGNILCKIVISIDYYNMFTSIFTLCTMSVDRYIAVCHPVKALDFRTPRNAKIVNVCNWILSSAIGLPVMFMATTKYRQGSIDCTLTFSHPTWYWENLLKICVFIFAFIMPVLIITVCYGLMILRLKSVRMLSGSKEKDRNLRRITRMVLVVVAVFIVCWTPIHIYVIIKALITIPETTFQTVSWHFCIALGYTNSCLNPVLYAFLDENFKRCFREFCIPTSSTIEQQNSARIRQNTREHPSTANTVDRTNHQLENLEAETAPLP
UniProt P35372, whole entry: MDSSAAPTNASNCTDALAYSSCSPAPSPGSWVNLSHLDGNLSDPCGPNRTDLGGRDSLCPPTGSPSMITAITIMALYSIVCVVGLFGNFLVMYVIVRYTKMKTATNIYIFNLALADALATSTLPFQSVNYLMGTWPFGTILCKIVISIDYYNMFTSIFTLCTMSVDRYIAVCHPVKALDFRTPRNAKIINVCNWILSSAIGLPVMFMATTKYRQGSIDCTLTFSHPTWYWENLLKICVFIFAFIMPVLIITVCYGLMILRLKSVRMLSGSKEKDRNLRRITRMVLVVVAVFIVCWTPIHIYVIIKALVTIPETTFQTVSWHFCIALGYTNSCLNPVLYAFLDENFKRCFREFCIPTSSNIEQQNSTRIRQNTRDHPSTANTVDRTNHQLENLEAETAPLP
UniProt P41143, whole entry: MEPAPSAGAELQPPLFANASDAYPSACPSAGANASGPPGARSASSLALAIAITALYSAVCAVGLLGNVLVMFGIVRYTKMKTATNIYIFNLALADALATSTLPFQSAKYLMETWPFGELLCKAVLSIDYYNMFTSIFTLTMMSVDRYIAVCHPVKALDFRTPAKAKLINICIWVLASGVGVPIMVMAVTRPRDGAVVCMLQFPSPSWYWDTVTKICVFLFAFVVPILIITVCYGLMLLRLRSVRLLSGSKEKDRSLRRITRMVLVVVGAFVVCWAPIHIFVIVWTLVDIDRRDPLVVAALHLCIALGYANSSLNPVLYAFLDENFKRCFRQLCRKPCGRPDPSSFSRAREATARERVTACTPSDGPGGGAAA

[2] = biological target: T2, kappa-delta heterodimer (UniProt P32300+P34975); assay type: binding, rat kappa, mouse delta; conditions: read-out: Kappa-Delta (Ki)
T2 construct: myc; FLAG; expressed in transfected cells; host or cells: HEK293

[3] = biological target: T3, mu and delta receptors (Mus musculus, UniProt P32300+P42866); test: Whole cell 3H-DAMGO binding, cells exogenously co-expressing mu and delta receptors; conditions: 10 nM TIPPΨ
T3 construct: FLAG; myc; expressed in transfected cells; host or cells: CHO

[4] = biological target: T4, SK-N-SH neuroblastoma cells that endogenously express mu and delta receptors (Homo sapiens, UniProt P35372+P41143); test: Whole cell 3H-DAMGO binding, SK-N-SH neuroblastoma cells; conditions: 10 nM TIPPΨ
T4 construct: SK-N-SH cells that endogenously express mu and delta receptors; endogenous in cells; host or cells: SK-N-SH neuroblastoma cells

[5] = biological target: T5, mu receptors (Mus musculus, UniProt P42866); test: Whole cell 3H-DAMGO binding, cells expressing mu receptors alone; conditions: cells expressing only mu receptors
T5 construct: FLAG; expressed in transfected cells; host or cells: CHO

[6] = biological target: T6, mu-delta heterodimer (Mus musculus, UniProt P32300+P42866); test: Phosphorylated MAPK assay, mu-delta heterodimer; assay type: cell-based; conditions: 10 nM TIPPΨ
T6 construct: FLAG; myc; expressed in transfected cells

N[C@@H](Cc1ccc(O)cc1)C(=O)N1Cc2ccccc2C[C@H]1CN[C@@H](Cc1ccccc1)C(=O)N[C@@H](Cc1ccccc1)C(=O)O [TIPP Ψ]
Ki [1]: > 1000 nM | Ki [2]: > 1000 nM | increase in the number of 3H-DAMGO binding sites [3]: about 50% | increase in the number of 3H-DAMGO binding sites [4]: about 50% | increase in 3H-DAMGO binding sites [5]: not seen | DAMGO-induced MAPK phosphorylation [6]: significant increase

From US6855807B1 (priority 1999, dated 2005)
